Legend:
Type in all cases: functional
Hep 3B2 [1] = assay: Cell cycle arrest in human Hep3B cells assessed as accumulation at sub-G1 phase at 20 uM after 48 hrs by propidium iodide staining based flow cytometry (reference value: 1.5 to 6.5%)
Hep 3B2 [2] = assay: Cell cycle arrest in human Hep3B cells assessed as accumulation at G2/M phase at 2.5 uM after 72 hrs by propidium iodide staining based flow cytometry (reference value: 28.7 to 32.3%)
Hep 3B2 [3] = assay: Cytotoxicity against human Hep3B cells at 20 uM after 24 hrs by MTT assay relative to control
Hep 3B2 [4] = assay: Cell cycle arrest in human Hep3B cells assessed as accumulation at G0/G1 phase at 2.5 uM after 72 hrs by propidium iodide staining based flow cytometry (reference value: 41.6 to 46.2%)
Hep 3B2 [5] = assay: Cell cycle arrest in human Hep3B cells assessed as accumulation at G0/G1 phase at 2.5 uM after 48 hrs by propidium iodide staining based flow cytometry (reference value: 39.7 to 40.4%)
Hep 3B2 [6] = assay: Cell cycle arrest in human Hep3B cells assessed as accumulation at S phase at 2.5 uM after 48 hrs by propidium iodide staining based flow cytometry (reference value: 20.8 to 24%)

SMILES: CNC(=O)c1cc(Oc2ccc(NC(=O)Nc3ccc(Cl)c(C(F)(F)F)c3)cc2)ccn1 [SORAFENIB]
- Activity (Hep 3B2 [1]): 43.3%
- Activity (Hep 3B2 [2]): 35.9%
- Activity (Hep 3B2 [3]): 40.2%
- Activity (Hep 3B2 [4]): 43.8%
- Activity (Hep 3B2 [5]): 44.1%
- Activity (Hep 3B2 [6]): 16.2%

Source: ChEMBL document CHEMBL4024707, “Using gene expression database to uncover biology functions of 1,4-disubstituted 1,2,3-triazole analogues synthesized via a copper (I)-catalyzed reaction” (Eur J Med Chem, 2017)
